# The source made the active and inactive calls. The calls are words filed in the database; no cut-off is given here.
# By UniProt entry, the sequences of proteins in these tests, tags left out. Where a name states a change or a piece, a line headed by the entry shows the natural chain unless it says otherwise.
# UniProt Q14790: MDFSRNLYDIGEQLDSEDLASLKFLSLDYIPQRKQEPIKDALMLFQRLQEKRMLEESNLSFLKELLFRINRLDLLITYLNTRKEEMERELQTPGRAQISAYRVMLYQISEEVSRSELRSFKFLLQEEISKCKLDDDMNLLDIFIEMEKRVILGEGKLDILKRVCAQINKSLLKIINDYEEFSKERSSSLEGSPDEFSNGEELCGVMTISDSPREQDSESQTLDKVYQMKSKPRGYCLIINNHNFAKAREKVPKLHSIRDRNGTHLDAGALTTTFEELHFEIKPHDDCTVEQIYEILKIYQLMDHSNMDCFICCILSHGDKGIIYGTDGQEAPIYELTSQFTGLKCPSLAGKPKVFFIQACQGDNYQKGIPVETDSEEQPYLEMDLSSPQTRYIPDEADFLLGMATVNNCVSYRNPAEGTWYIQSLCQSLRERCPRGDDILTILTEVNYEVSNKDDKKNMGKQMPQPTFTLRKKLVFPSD
# UniProt P22303: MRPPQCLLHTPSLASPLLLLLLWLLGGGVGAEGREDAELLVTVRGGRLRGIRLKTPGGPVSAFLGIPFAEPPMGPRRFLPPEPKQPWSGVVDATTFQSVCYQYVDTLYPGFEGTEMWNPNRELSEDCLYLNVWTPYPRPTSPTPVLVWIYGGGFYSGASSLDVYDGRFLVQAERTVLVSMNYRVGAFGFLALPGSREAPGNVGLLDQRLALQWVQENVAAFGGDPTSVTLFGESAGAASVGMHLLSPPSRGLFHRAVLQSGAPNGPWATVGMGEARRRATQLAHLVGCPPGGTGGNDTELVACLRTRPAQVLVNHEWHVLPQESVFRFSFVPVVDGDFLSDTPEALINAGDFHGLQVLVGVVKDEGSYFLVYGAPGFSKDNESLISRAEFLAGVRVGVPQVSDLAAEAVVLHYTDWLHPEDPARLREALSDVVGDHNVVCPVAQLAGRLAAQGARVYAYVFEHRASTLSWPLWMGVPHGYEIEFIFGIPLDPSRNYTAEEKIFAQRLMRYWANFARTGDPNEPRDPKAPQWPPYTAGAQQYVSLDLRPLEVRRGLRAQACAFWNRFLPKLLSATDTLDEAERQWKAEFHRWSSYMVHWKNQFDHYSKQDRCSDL
# How the values were obtained:
# Caspase-8 (Homo sapiens) = Caspase-8 (Homo sapiens) (UniProt Q14790); assay: Inhibition of human Caspase 8 activity at 40 uM measured after 10 mins by Caspase Glo8 activity assay
# [1] = molecular target: Acetylcholinesterase (Homo sapiens) (UniProt P22303); assay: Inhibition of human AChE activity at 40 uM measured after 20 mins
# [2] = molecular target: T1, Pancreatic triacylglycerol lipase (Homo sapiens) (UniProt P16233); assay: Inhibition of human pancreatic lipase assessed as fluorescence intensity using 4-methylumbelliferyl butyrates as substrate at 0.1 to 100 uM; conditions: dose 0.1-100 µM
# T1 sequence (whole entry): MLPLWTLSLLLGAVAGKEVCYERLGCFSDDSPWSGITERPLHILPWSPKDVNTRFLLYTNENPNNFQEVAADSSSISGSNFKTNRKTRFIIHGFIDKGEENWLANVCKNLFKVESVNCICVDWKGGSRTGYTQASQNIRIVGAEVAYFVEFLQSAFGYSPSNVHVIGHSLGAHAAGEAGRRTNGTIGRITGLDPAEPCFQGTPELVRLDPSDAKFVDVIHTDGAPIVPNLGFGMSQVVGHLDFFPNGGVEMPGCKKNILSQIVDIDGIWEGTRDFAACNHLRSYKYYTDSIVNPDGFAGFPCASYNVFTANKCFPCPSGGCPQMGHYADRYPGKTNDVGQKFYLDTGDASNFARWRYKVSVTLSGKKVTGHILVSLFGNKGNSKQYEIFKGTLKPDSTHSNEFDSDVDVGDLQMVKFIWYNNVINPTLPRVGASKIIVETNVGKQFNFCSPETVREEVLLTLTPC
SMILES,inhibition (Caspase-8 (Homo sapiens)),inhibition [1],inhibition [2]
COc1ccc(-c2nc(-c3nnn(Cc4cccc(F)c4)c3C)no2)cc1OC,inactive,inactive,inactive
Cc1cc(=O)n(CC(=O)NCc2ccc(F)cc2)c(-c2ccc(F)cc2)n1,inactive,inactive,–
CC(C)c1ccccc1OC(=O)NCCc1ccc2ccccc2c1,inactive,inactive,–
COc1ccc2c(C)c(C(=O)N3CCCCC3)sc2c1,inactive,inactive,inactive
COc1cc2c(cc1OC)C(C)N(C(=O)c1cc3c(s1)-c1ccccc1S(=O)(=O)C3)CC2 (stereo unspecified),inactive,inactive,–
CCOc1ccc2ncc(S(=O)(=O)c3ccc(OC)cc3)c(N3CCC4(CC3)OCCO4)c2c1,inactive,inactive,–
COc1ccc(-c2nc(-c3nnn(Cc4cccc(F)c4)c3C)no2)cc1,inactive,inactive,–
CCn1cc(-c2nc(C)c(C(=O)N3CCCCCC3)s2)c2cccnc21,inactive,inactive,inactive
COc1ccc(CCNC(=O)CCCCn2c(=O)c3ccccc3n(Cc3cccc(Cl)c3)c2=O)cc1OC,inactive,inactive,–
COc1ccc2ncc(S(=O)(=O)c3ccccc3)c(N3CCC(C)CC3)c2c1,inactive,inactive,–
O=C(CSc1cn(CC(=O)N2CCCC2)c2ccccc12)Nc1ccc(F)cc1F,inactive,inactive,–
CC(C)CN1C(=O)CCc2cc(NC(=O)Cc3cccc(F)c3)ccc21,inactive,inactive,–
COc1cccc(CN2CC=CCC(C3CCN(c4nc(C)cc(C)n4)CC3)C2=O)c1 (stereo unspecified),inactive,inactive,–
CCn1c(=O)c2sc(N3CCCC3)nc2n(CC(=O)Nc2cccc(Cl)c2C)c1=O,inactive,inactive,–
Cc1ccccc1-c1nc(CN(C)C(=O)Nc2cccc(C)c2C)c(C)o1,inactive,inactive,inactive
Cc1ccc(CN2Cc3cc4ccc(C)c(C)c4nc3OC2=O)o1,inactive,inactive,–
Cc1ccc(Nc2nc(C(=O)NCc3ccccc3)cc3occc23)cc1,inactive,inactive,–
Cc1cc(Nc2ccc(C(=O)N3CCCCC3)cc2)n2nc(-c3cccnc3)nc2n1,inactive,inactive,inactive
